Test results taken from the NIST ThermoML archive (doi:10.1016/j.jct.2018.11.010).
± gives the expanded uncertainty stated by the source.

Test: xn = mol fraction of the nth substance listed
Settings: Liquid, Vibrating tube method, x1 = 1

CCCCOCCCC [dibutyl ether] + CCCCCCCO
mass density (298.15 K, 100 kPa): 763.8 ± 0.7 kg/m3
mass density (298.15 K, 1000 kPa): 764.7 ± 0.7 kg/m3
mass density (298.15 K, 5000 kPa): 768.2 ± 0.7 kg/m3
mass density (298.15 K, 10000 kPa): 772.4 ± 0.7 kg/m3
mass density (298.15 K, 15000 kPa): 776.4 ± 0.8 kg/m3
mass density (298.15 K, 20000 kPa): 780.2 ± 0.8 kg/m3
mass density (298.15 K, 25000 kPa): 783.7 ± 0.8 kg/m3
mass density (298.15 K, 30000 kPa): 787.3 ± 0.8 kg/m3
mass density (298.15 K, 35000 kPa): 790.6 ± 0.8 kg/m3
mass density (298.15 K, 40000 kPa): 793.8 ± 0.8 kg/m3
mass density (298.15 K, 45000 kPa): 796.9 ± 0.9 kg/m3
mass density (298.15 K, 50000 kPa): 799.8 ± 0.9 kg/m3
mass density (298.15 K, 55000 kPa): 802.8 ± 0.9 kg/m3
mass density (298.15 K, 60000 kPa): 805.6 ± 0.9 kg/m3
mass density (298.15 K, 65000 kPa): 808.3 ± 0.9 kg/m3
mass density (298.15 K, 70000 kPa): 811 ± 0.9 kg/m3
mass density (298.15 K, 80000 kPa): 816.1 ± 1 kg/m3
mass density (298.15 K, 90000 kPa): 821 ± 1 kg/m3
mass density (298.15 K, 100000 kPa): 825.5 ± 1 kg/m3
mass density (298.15 K, 110000 kPa): 830 ± 1.1 kg/m3
mass density (298.15 K, 120000 kPa): 834.2 ± 1.1 kg/m3
mass density (298.15 K, 130000 kPa): 838.3 ± 1.1 kg/m3
mass density (298.15 K, 140000 kPa): 842.1 ± 1.2 kg/m3
mass density (313.15 K, 100 kPa): 750.7 ± 0.7 kg/m3
mass density (313.15 K, 1000 kPa): 751.6 ± 0.7 kg/m3
mass density (313.15 K, 5000 kPa): 755.6 ± 0.7 kg/m3
mass density (313.15 K, 10000 kPa): 760.1 ± 0.7 kg/m3
mass density (313.15 K, 15000 kPa): 764.5 ± 0.8 kg/m3
mass density (313.15 K, 20000 kPa): 768.6 ± 0.8 kg/m3
mass density (313.15 K, 25000 kPa): 772.3 ± 0.8 kg/m3
mass density (313.15 K, 30000 kPa): 776.2 ± 0.8 kg/m3
mass density (313.15 K, 35000 kPa): 779.7 ± 0.8 kg/m3
mass density (313.15 K, 40000 kPa): 783.1 ± 0.8 kg/m3
mass density (313.15 K, 45000 kPa): 786.4 ± 0.9 kg/m3
mass density (313.15 K, 50000 kPa): 789.7 ± 0.9 kg/m3
mass density (313.15 K, 55000 kPa): 792.7 ± 0.9 kg/m3
mass density (313.15 K, 60000 kPa): 795.7 ± 0.9 kg/m3
mass density (313.15 K, 65000 kPa): 798.6 ± 0.9 kg/m3
mass density (313.15 K, 70000 kPa): 801.4 ± 1 kg/m3
mass density (313.15 K, 80000 kPa): 806.7 ± 1 kg/m3
mass density (313.15 K, 90000 kPa): 811.9 ± 1 kg/m3
mass density (313.15 K, 100000 kPa): 816.7 ± 1.1 kg/m3
mass density (313.15 K, 110000 kPa): 821.4 ± 1.1 kg/m3
mass density (313.15 K, 120000 kPa): 825.7 ± 1.1 kg/m3
mass density (313.15 K, 130000 kPa): 830.1 ± 1.2 kg/m3
mass density (313.15 K, 140000 kPa): 834.2 ± 1.2 kg/m3
mass density (333.15 K, 100 kPa): 733 ± 0.7 kg/m3
mass density (333.15 K, 1000 kPa): 734 ± 0.7 kg/m3
mass density (333.15 K, 5000 kPa): 738.5 ± 0.7 kg/m3
mass density (333.15 K, 10000 kPa): 743.6 ± 0.8 kg/m3
mass density (333.15 K, 15000 kPa): 748.6 ± 0.8 kg/m3
mass density (333.15 K, 20000 kPa): 753.1 ± 0.8 kg/m3
mass density (333.15 K, 25000 kPa): 757.5 ± 0.8 kg/m3
mass density (333.15 K, 30000 kPa): 761.5 ± 0.8 kg/m3
mass density (333.15 K, 35000 kPa): 765.5 ± 0.8 kg/m3
mass density (333.15 K, 40000 kPa): 769.2 ± 0.9 kg/m3
mass density (333.15 K, 45000 kPa): 772.7 ± 0.9 kg/m3
mass density (333.15 K, 50000 kPa): 776.2 ± 0.9 kg/m3
mass density (333.15 K, 55000 kPa): 779.6 ± 0.9 kg/m3
mass density (333.15 K, 60000 kPa): 782.7 ± 0.9 kg/m3
mass density (333.15 K, 65000 kPa): 785.8 ± 1 kg/m3
mass density (333.15 K, 70000 kPa): 788.8 ± 1 kg/m3
mass density (333.15 K, 80000 kPa): 794.6 ± 1 kg/m3
mass density (333.15 K, 90000 kPa): 800 ± 1.1 kg/m3
mass density (333.15 K, 100000 kPa): 805.2 ± 1.1 kg/m3
mass density (333.15 K, 110000 kPa): 810 ± 1.1 kg/m3
mass density (333.15 K, 120000 kPa): 814.7 ± 1.2 kg/m3
mass density (333.15 K, 130000 kPa): 819.3 ± 1.2 kg/m3
mass density (333.15 K, 140000 kPa): 823.5 ± 1.2 kg/m3
mass density (353.15 K, 100 kPa): 715 ± 0.7 kg/m3
mass density (353.15 K, 1000 kPa): 716.2 ± 0.7 kg/m3
mass density (353.15 K, 5000 kPa): 721.3 ± 0.7 kg/m3
mass density (353.15 K, 10000 kPa): 727.2 ± 0.8 kg/m3
mass density (353.15 K, 15000 kPa): 732.7 ± 0.8 kg/m3
mass density (353.15 K, 20000 kPa): 737.8 ± 0.8 kg/m3
mass density (353.15 K, 25000 kPa): 742.6 ± 0.8 kg/m3
mass density (353.15 K, 30000 kPa): 747.1 ± 0.8 kg/m3
mass density (353.15 K, 35000 kPa): 751.4 ± 0.9 kg/m3
mass density (353.15 K, 40000 kPa): 755.4 ± 0.9 kg/m3
mass density (353.15 K, 45000 kPa): 759.3 ± 0.9 kg/m3
mass density (353.15 K, 50000 kPa): 763 ± 0.9 kg/m3
mass density (353.15 K, 55000 kPa): 766.6 ± 0.9 kg/m3
mass density (353.15 K, 60000 kPa): 770.1 ± 1 kg/m3
mass density (353.15 K, 65000 kPa): 773.4 ± 1 kg/m3
mass density (353.15 K, 70000 kPa): 776.7 ± 1 kg/m3
mass density (353.15 K, 80000 kPa): 782.7 ± 1 kg/m3
mass density (353.15 K, 90000 kPa): 788.5 ± 1.1 kg/m3
mass density (353.15 K, 100000 kPa): 794 ± 1.1 kg/m3
mass density (353.15 K, 110000 kPa): 799.2 ± 1.2 kg/m3
mass density (353.15 K, 120000 kPa): 804 ± 1.2 kg/m3
mass density (353.15 K, 130000 kPa): 808.7 ± 1.2 kg/m3
mass density (353.15 K, 140000 kPa): 813.3 ± 1.3 kg/m3
mass density (373.15 K, 1000 kPa): 697.9 ± 0.7 kg/m3
mass density (373.15 K, 5000 kPa): 703.8 ± 0.7 kg/m3
mass density (373.15 K, 10000 kPa): 710.5 ± 0.8 kg/m3
mass density (373.15 K, 15000 kPa): 716.7 ± 0.8 kg/m3
mass density (373.15 K, 20000 kPa): 722.4 ± 0.8 kg/m3
mass density (373.15 K, 25000 kPa): 727.7 ± 0.8 kg/m3
mass density (373.15 K, 30000 kPa): 732.7 ± 0.8 kg/m3
mass density (373.15 K, 35000 kPa): 737.4 ± 0.9 kg/m3
mass density (373.15 K, 40000 kPa): 741.9 ± 0.9 kg/m3
mass density (373.15 K, 45000 kPa): 746.1 ± 0.9 kg/m3
mass density (373.15 K, 50000 kPa): 750 ± 0.9 kg/m3
mass density (373.15 K, 55000 kPa): 754 ± 1 kg/m3
mass density (373.15 K, 60000 kPa): 757.7 ± 1 kg/m3
mass density (373.15 K, 65000 kPa): 761.2 ± 1 kg/m3
mass density (373.15 K, 70000 kPa): 764.6 ± 1 kg/m3
mass density (373.15 K, 80000 kPa): 771.2 ± 1.1 kg/m3
mass density (373.15 K, 90000 kPa): 777.3 ± 1.1 kg/m3
mass density (373.15 K, 100000 kPa): 783 ± 1.2 kg/m3
mass density (373.15 K, 110000 kPa): 788.5 ± 1.2 kg/m3
mass density (373.15 K, 120000 kPa): 793.6 ± 1.2 kg/m3
mass density (373.15 K, 130000 kPa): 798.6 ± 1.3 kg/m3
mass density (373.15 K, 140000 kPa): 803.3 ± 1.3 kg/m3
mass density (393.15 K, 1000 kPa): 679 ± 0.7 kg/m3
mass density (393.15 K, 5000 kPa): 685.9 ± 0.8 kg/m3
mass density (393.15 K, 10000 kPa): 693.5 ± 0.8 kg/m3
mass density (393.15 K, 15000 kPa): 700.6 ± 0.8 kg/m3
mass density (393.15 K, 20000 kPa): 706.9 ± 0.8 kg/m3
mass density (393.15 K, 25000 kPa): 712.8 ± 0.8 kg/m3
mass density (393.15 K, 30000 kPa): 718.3 ± 0.9 kg/m3
mass density (393.15 K, 35000 kPa): 723.5 ± 0.9 kg/m3
mass density (393.15 K, 40000 kPa): 728.3 ± 0.9 kg/m3
mass density (393.15 K, 45000 kPa): 732.8 ± 0.9 kg/m3
mass density (393.15 K, 50000 kPa): 737.2 ± 0.9 kg/m3
mass density (393.15 K, 55000 kPa): 741.4 ± 1 kg/m3
mass density (393.15 K, 60000 kPa): 745.3 ± 1 kg/m3
mass density (393.15 K, 65000 kPa): 749.1 ± 1 kg/m3
mass density (393.15 K, 70000 kPa): 752.8 ± 1.1 kg/m3
mass density (393.15 K, 80000 kPa): 759.7 ± 1.1 kg/m3
mass density (393.15 K, 90000 kPa): 766.2 ± 1.1 kg/m3
mass density (393.15 K, 100000 kPa): 772.3 ± 1.2 kg/m3
mass density (393.15 K, 110000 kPa): 778.1 ± 1.2 kg/m3
mass density (393.15 K, 120000 kPa): 783.4 ± 1.3 kg/m3
mass density (393.15 K, 130000 kPa): 788.6 ± 1.3 kg/m3
mass density (393.15 K, 140000 kPa): 793.6 ± 1.4 kg/m3
